Results: patent US5414001A, “Antineoplastic pyrrolo[4,3,2-de]quinolin-8(1H)-ones” (American Cyanamid Company, priority 1993, dated 1995)

Key:
[1] = tested on: panel of >20 human tumor cell lines; test: In vitro tumor panel evaluation, Sulforhodamine B (SRB) cytotoxicity assay; format: cell-based; conditions: 48 hours
MIP / SW620 = test: SRB cytotoxicity ratio MIP/SW620 (MDR, P-glycoprotein resistance); format: cell-based, human; conditions: IC50 resistant / IC50 sensitive cell line; MDR (pglycoprotein) resistance; 2880 min
HCT15 / SKBR3 = test: SRB cytotoxicity ratio HCT15/SKBR3 (topoisomerase resistance); format: cell-based, human; conditions: IC50 resistant / IC50 sensitive cell line, 2880 min
[2] = tested on: Ovcar3 human ovarian carcinoma; test: In vivo antitumor activity, Ovcar3 subcutaneous solid tumor; parameters: species or system human tumor in Balb/C nu/nu athymic mice; conditions: 5.0 mg/kg i.p., day 1, 5, 9; 3-4 week period; * Significant at P > 0.05
P388 murine leukemia = test: In vivo antitumor activity, P388 ascites tumor; parameters: species or system murine (mice); conditions: 5.0 mg/kg i.p., day 1, 5, 9
B. subtilis 17 = test: Antibacterial agar diffusion assay; format: cell-based; conditions: 1000 microgram/ml; H = hazy zones
B. subtilis rec E4 308 = test: Antibacterial agar diffusion assay; format: cell-based; conditions: H = hazy zones
B. subtilis rec+ 307 = test: Antibacterial agar diffusion assay; format: cell-based; conditions: H = hazy zones
BR513 = test: Biochemical Induction Assay (BIA), DNA damage; format: cell-based; conditions: T = toxic
CaCo2 / CX1 = test: SRB cytotoxicity ratio CaCo2/CX1 (growth kinetics); conditions: IC50 resistant / IC50 sensitive cell line, 2880 min

Cn1cc2c3c1C(=O)C(N)=CC3=NCC2.O=C(O)C(F)(F)F
AVG IC50 ([1]; Mean IC50 value for all 20 cell lines): 1 µg/mL | MAX IC50 ([1]; least sensitive cell line): 2.17 µg/mL | MIN IC50 ([1]; most sensitive cell line): 0.36 µg/mL | MIP/SW620 IC50 ratio (MIP / SW620): 1.1 | HCT15/SKBR3 IC50 ratio (HCT15 / SKBR3): 1.9 | Ovcar3 Min T/C % [2]: 94% | P388 ILS % (P388 murine leukemia): 9% | ZONES OF INHIBITION (B. subtilis 17): 11 MM | ZONES OF INHIBITION (B. subtilis rec E4 308; 250 microgram/ml): 9H | ZONES OF INHIBITION (B. subtilis rec E4 308; 1000 microgram/ml): 13H | ZONES OF INHIBITION (B. subtilis rec+ 307; 250 microgram/ml): 8 MM | ZONES OF INHIBITION (B. subtilis rec+ 307; 1000 microgram/ml): 13 MM | BIA BR513 (BR513; 250 microgram/ml): 8T | BIA BR513 (BR513; 1000 microgram/ml): 10T | CaCO2/CX1 IC50 ratio (CaCo2 / CX1): 0.3
